Measurements taken from patent US11129871B1, “Compositions and methods for treating and preventing endoplasmic reticulum (ER) stress-mediated kidney diseases” (Washington University, priority 2018, dated 2021).

Chains of the proteins cited; added tags and fusions are not shown.
UniProt E9Q401, whole entry: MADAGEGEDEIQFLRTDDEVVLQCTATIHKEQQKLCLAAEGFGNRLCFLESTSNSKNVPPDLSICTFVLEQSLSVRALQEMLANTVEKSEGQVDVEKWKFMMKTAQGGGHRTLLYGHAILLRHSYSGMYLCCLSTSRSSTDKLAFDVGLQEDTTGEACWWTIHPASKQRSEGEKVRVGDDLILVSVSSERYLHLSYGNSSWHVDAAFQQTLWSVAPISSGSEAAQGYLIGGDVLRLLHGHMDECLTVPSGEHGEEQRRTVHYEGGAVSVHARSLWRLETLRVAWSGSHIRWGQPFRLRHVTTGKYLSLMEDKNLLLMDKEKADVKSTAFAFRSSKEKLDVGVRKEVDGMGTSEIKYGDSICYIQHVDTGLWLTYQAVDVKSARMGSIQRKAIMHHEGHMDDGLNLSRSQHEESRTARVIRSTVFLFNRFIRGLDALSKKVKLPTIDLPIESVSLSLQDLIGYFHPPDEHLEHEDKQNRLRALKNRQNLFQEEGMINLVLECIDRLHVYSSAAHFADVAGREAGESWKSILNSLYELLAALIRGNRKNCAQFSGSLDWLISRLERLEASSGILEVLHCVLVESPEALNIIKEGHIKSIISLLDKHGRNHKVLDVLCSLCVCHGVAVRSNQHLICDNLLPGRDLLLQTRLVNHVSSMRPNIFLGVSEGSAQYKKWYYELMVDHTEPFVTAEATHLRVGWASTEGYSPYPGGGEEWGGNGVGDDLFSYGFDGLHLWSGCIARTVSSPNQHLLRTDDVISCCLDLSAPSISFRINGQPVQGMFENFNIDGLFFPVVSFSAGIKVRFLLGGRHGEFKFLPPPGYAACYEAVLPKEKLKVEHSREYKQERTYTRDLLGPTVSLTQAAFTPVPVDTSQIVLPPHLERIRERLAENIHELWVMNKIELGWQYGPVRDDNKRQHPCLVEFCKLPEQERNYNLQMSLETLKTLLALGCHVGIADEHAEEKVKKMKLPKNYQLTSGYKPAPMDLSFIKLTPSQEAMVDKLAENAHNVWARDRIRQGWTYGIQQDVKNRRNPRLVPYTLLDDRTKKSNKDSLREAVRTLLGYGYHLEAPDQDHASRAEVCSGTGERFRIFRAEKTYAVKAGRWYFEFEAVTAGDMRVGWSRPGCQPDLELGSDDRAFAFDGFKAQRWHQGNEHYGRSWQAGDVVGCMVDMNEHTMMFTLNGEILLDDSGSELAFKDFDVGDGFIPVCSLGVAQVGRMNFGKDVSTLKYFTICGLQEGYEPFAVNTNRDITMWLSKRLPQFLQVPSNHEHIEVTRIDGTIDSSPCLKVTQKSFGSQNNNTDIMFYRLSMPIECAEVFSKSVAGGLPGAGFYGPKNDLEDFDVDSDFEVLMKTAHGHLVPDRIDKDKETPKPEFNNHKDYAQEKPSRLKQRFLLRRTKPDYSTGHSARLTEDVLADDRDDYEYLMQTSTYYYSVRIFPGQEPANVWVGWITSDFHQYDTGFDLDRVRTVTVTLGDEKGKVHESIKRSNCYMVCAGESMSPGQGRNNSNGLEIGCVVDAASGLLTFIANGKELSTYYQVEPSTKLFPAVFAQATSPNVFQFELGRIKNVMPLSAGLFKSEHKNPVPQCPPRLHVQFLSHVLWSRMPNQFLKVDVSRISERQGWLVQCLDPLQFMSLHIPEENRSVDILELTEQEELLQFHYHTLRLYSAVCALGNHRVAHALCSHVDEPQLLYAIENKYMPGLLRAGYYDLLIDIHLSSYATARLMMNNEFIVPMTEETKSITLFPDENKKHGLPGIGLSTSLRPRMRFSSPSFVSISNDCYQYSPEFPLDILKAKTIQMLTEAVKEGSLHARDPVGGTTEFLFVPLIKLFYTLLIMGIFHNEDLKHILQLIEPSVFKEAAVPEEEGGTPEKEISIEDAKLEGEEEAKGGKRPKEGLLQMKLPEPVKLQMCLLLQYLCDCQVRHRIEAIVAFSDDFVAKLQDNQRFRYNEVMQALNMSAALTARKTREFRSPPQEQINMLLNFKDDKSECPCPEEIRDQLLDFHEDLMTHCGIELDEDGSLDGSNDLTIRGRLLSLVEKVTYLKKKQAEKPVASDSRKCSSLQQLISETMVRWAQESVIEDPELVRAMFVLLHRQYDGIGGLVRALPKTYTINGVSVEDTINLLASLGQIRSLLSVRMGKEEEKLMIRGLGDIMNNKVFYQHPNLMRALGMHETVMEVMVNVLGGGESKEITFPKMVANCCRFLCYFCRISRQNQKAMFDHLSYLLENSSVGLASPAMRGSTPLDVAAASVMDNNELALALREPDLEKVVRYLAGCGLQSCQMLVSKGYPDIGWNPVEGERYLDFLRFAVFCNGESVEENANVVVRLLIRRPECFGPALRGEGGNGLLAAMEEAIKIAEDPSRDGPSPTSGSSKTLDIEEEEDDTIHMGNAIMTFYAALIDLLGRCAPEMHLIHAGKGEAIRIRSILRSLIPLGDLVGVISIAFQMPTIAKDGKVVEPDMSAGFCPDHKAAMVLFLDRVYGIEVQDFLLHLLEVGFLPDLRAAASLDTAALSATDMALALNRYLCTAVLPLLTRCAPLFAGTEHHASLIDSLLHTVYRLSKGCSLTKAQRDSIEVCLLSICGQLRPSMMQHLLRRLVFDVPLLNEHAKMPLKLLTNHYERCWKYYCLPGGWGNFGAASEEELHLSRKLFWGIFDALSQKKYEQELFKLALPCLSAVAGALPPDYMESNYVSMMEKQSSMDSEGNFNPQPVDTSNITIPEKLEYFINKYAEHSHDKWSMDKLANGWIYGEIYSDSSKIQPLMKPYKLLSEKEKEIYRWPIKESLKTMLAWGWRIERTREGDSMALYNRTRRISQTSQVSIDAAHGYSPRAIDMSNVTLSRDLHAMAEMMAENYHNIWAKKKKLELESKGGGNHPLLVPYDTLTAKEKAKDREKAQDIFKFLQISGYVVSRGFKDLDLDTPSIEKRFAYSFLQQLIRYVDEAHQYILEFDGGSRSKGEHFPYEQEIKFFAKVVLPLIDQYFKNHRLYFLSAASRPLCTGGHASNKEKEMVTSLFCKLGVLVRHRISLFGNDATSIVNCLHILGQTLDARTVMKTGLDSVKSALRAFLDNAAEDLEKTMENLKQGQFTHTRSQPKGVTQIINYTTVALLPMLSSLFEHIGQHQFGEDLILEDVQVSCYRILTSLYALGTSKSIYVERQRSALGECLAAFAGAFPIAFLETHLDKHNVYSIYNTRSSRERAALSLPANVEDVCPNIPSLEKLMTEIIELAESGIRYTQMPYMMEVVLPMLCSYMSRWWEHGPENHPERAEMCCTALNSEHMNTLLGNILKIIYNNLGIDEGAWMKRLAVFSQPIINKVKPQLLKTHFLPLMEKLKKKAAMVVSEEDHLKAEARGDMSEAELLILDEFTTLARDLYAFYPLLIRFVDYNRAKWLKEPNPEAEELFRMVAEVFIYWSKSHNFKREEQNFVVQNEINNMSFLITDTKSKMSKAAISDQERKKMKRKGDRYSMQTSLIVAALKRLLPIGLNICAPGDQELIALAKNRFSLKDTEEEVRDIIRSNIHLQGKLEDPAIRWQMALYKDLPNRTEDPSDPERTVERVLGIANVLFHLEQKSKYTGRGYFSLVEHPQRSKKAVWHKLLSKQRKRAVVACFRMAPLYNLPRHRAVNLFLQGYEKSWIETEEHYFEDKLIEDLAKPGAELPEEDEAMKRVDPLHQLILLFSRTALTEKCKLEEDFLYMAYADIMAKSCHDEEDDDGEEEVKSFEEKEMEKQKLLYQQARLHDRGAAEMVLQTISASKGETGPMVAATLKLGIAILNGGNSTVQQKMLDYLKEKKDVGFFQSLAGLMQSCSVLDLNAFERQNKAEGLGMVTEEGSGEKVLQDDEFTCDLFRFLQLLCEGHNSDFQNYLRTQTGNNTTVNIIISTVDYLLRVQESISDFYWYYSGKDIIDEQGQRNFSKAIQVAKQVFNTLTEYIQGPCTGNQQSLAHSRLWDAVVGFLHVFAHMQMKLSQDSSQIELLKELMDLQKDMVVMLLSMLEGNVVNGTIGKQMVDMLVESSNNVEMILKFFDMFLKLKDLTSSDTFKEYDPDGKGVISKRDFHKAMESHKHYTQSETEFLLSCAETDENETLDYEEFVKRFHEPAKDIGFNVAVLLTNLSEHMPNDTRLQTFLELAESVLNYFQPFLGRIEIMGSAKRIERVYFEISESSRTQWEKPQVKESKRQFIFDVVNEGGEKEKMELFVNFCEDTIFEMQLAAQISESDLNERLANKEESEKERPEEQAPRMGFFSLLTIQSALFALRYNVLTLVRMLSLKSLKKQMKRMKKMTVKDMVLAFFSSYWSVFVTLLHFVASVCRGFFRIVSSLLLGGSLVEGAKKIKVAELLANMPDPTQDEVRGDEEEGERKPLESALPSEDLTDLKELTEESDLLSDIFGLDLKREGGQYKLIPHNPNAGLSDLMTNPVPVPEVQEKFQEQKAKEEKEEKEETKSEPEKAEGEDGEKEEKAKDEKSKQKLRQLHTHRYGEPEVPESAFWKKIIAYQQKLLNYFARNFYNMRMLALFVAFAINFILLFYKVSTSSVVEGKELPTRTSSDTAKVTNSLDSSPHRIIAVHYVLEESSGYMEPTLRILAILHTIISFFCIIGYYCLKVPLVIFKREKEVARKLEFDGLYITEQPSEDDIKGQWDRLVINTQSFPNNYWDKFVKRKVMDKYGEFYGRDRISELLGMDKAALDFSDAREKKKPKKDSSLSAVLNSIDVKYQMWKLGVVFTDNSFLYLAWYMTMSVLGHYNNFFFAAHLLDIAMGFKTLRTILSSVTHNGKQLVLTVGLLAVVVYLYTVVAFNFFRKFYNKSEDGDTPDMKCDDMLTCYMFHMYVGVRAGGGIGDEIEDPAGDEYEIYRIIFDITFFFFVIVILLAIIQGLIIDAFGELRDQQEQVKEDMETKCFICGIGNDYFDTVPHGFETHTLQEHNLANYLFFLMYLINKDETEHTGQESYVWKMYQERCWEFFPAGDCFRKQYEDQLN

Molecular target: T1, RyR2 (Mus musculus, UniProt E9Q401)
T1 construct: Cultured primary podocytes from Tg-WT and Tg-C321R mice at P27 were treated with 5 μM K201 or DMSO; endogenous in cells; host or cells: mouse primary podocytes from Tg-WT and Tg-C321R mice at P27
Test: Western blot of p-RyR2 (S2808) and RyR in podocyte lysates
Format: cell-based
Conditions: 5 μM K201, 24 hours, Tg-C321R podocytes

COc1ccc2c(c1)CN(C(=O)CCN1CCC(Cc3ccccc3)CC1)CCS2 [K201, 4-[-3{1-(4-Benzyl)piperidinyl}propionyl]-7-methoxy-2,3,4,5-tetrahydro-1,4-benzothiazepine]
phosphorylation of RyR2 at Ser2808: inhibited hyperphosphorylation
